Values of other authors as cited in patent publication US20220211662A1, “METHOD OF TREATING CANCER BY ADMINISTERING AN EPIGALLOCATECHIN GALLATE COMBINED WITH TYROSINE KINASE INHIBITOR” (Yunnan Daye Dihong Biotechnology Co., Ltd., priority 2019, published 2022).

Tested on: EGFR tumor patients
Conditions: cited from earlier work

Compound: COc1cc2ncnc(Nc3ccc(F)c(Cl)c3)c2cc1OCCCN1CCOCC1 [Gefitinib]
- clinical effect (patient with highly activated EGFR): no significant effect
- effective rate (patients with EGFR L858R mutation): ≤ 80%
